This note sets out measurements from BindingDB's records for 28684009.

By UniProt entry, the sequences of proteins in these tests, tags left out. Residues count along the entry.
UniProt P22303, 32-614 limits assumed: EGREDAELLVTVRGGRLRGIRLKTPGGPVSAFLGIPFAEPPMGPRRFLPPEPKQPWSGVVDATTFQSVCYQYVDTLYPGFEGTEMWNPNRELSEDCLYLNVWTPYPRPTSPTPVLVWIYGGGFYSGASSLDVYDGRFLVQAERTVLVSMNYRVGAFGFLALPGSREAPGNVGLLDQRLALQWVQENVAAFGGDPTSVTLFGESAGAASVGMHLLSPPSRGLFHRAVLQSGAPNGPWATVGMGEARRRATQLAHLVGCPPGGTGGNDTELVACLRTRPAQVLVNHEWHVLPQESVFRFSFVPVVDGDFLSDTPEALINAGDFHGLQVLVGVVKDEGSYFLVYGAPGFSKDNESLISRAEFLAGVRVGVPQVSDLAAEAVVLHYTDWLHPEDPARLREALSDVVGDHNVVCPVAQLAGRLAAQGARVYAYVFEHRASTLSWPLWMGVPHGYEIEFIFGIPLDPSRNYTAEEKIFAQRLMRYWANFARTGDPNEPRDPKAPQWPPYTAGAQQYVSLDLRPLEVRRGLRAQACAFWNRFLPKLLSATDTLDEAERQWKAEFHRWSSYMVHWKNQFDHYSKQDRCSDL

The test concerns the target Acetylcholinesterase (Homo sapiens, UniProt P22303). The test can be described thus: Inhibition of human AChE using acetylthiocholine as substrate preincubated for 30 mins followed by substrate addition measured every 5 mins for 20 mins by Ellman's method.

In turn, `COc1cc2c(cc1OC)CN(CC1CCN(Cc3ccc(O)c(/C=N/O)c3)CC1)CC2` registered an IC50 of 393 µM.

For the compound `COc1cc2c(cc1OC)C(c1ccccc1)N(Cc1cc(C)cc(/C=N/O)c1O)CC2` (configuration not stated), the 50% inhibitory concentration (IC50) was determined as 1120 µM.

Regarding `COc1cc2c(cc1OC)CN(CC1CCN(Cc3cccc(/C=N/O)c3O)CC1)CC2`, the IC50 was determined as 802 µM.

`COc1cc2c(cc1OC)C(c1ccccc1)N(CC1CCN(Cc3ccc(O)c(/C=N/O)c3)CC1)CC2` (configuration not stated): the IC50 is 234 µM.

Regarding `COc1cc2c(cc1OC)CN(Cc1ccc(O)c(/C=N/O)c1)CC2`, the IC50 was 559 µM. On to `COc1cc2c(cc1OC)C(c1ccccc1)N(Cc1ccc(O)c(/C=N/O)c1)CC2` (configuration not stated), for which 626 µM corresponded to half-maximal inhibition (IC50). `COc1cc2c(cc1OC)CN(Cc1cc(Cl)cc(/C=N/O)c1O)CC2` returned an IC50 of 1570 µM. The figure for `COc1cc2c(cc1OC)C(c1ccccc1)N(Cc1cc(F)cc(/C=N/O)c1O)CC2` (configuration not stated) is 755 µM; for `COc1cc2c(cc1OC)CN(Cc1cc(F)cc(/C=N/O)c1O)CC2` it is 692 µM. The figure for `COc1cc(/C=N/O)c(O)c(CN2CCC(CN3CCc4cc(OC)c(OC)cc4C3c3ccccc3)CC2)c1` (configuration not stated) is 543 µM.

As for `COc1cc2c(cc1OC)C(c1ccccc1)N(CC1CCN(Cc3cc(Br)cc(/C=N/O)c3O)CC1)CC2` (configuration not stated), the midpoint of inhibition, the IC50, lay at 977 µM. In the case of `COc1cc2c(cc1OC)CN(CC1CCN(Cc3cc(Br)cc(/C=N/O)c3O)CC1)CC2` it was 568 µM; in that of `COc1cc2c(cc1OC)C(c1ccccc1)N(CC1CCN(Cc3cc(F)cc(/C=N/O)c3O)CC1)CC2` (configuration not stated), 684 µM.

`COc1cc2c(cc1OC)C(c1ccccc1)N(Cc1cc(Br)cc(/C=N/O)c1O)CC2` (configuration not stated) registered a 50% inhibitory concentration (IC50) of 896 µM.

For `COc1cc2c(cc1OC)CN(CC1CCN(Cc3cc(F)cc(/C=N/O)c3O)CC1)CC2`, the IC50 is 658 µM.

`COc1cc2c(cc1OC)C(c1ccccc1)N(Cc1cccc(/C=N/O)c1O)CC2` (configuration not stated) returned a half-inhibitory concentration (IC50) of 908 µM. In the case of `COc1cc(/C=N/O)c(O)c(CN2CCc3cc(OC)c(OC)cc3C2)c1` it was 1380 µM; in that of `COc1cc2c(cc1OC)C(c1ccccc1)N(CC1CCN(Cc3cc(C)cc(/C=N/O)c3O)CC1)CC2` (configuration not stated), 525 µM; in that of `COc1cc2c(cc1OC)CN(Cc1cccc(/C=N/O)c1O)CC2`, 1260 µM. The figure for `COc1cc2c(cc1OC)C(c1ccccc1)N(CC1CCN(Cc3cc(Cl)cc(/C=N/O)c3O)CC1)CC2` (configuration not stated) is 941 µM; for `COc1cc(/C=N/O)c(O)c(CN2CCC(CN3CCc4cc(OC)c(OC)cc4C3)CC2)c1` it is 848 µM.

Turning to `COc1cc2c(cc1OC)CN(Cc1cc(C)cc(/C=N/O)c1O)CC2`, half-maximal inhibition (IC50) required 1060 µM. In the case of `COc1cc2c(cc1OC)CN(CC1CCN(Cc3cc(Cl)cc(/C=N/O)c3O)CC1)CC2` it was 637 µM; in that of `COc1cc2c(cc1OC)C(c1ccccc1)N(CC1CCN(Cc3cccc(/C=N/O)c3O)CC1)CC2` (configuration not stated), 740 µM; in that of `COc1cc2c(cc1OC)C(c1ccccc1)N(Cc1cc(Cl)cc(/C=N/O)c1O)CC2` (configuration not stated), 1210 µM. In the case of `COc1cc(/C=N/O)c(O)c(CN2CCc3cc(OC)c(OC)cc3C2c2ccccc2)c1` (configuration not stated) it was 911 µM; in that of `COc1cc2c(cc1OC)CN(Cc1cc(Br)cc(/C=N/O)c1O)CC2`, 957 µM.
